Experimental data reported in patent US12473304B2, “Heterocyclic PAD4 inhibitors” (BRISTOL-MYERS SQUIBB COMPANY, priority 2020, dated 2025).

The chains behind the UniProt entries cited, without tags or fusion partners.
UniProt Q9UM07, whole entry: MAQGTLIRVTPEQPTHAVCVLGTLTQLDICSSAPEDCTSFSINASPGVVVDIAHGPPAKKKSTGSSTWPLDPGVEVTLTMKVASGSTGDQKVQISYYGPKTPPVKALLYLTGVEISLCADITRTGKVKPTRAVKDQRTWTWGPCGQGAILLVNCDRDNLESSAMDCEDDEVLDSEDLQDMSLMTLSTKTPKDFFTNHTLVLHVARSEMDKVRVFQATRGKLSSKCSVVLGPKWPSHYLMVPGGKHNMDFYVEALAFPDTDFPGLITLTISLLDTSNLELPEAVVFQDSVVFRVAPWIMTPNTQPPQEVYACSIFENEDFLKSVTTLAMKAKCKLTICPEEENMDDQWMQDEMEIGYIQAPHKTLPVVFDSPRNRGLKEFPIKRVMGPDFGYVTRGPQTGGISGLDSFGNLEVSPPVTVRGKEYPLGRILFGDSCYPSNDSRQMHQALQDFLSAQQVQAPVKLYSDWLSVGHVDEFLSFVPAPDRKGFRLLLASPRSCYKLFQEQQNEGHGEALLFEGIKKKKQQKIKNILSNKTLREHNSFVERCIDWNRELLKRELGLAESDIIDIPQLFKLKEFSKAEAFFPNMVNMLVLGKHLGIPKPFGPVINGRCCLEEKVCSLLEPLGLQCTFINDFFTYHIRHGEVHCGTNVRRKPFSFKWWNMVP

What follows are molecules tested against human PAD4 (hPAD4) (Homo sapiens (Human), UniProt Q9UM07) (assay: RFMS Human PAD4 Functional Assay 1). Details: read-out: hPAD4 RFMS IC50; RFMS assay 1; 5 nM hPAD4, 250 μM BAEE substrate, 50 μM calcium, 37° C.
Method: RFMS Human PAD4 Functional Assay 1:
Compounds were solubilized in 100% DMSO to achieve all) mM compound concentration. Compound stock solutions were stored at RT. A series of dilutions were prepared in DMSO and mixed 8 times with 20 μL mixing volume. Final top concentration of compound in the assay is 50 μM. Final assay conditions were as follows: • Reaction volume: 26 μl • Assay buffer: 25 mM hepes, pH 7.5, 5 mM NaCl, 1 mM DTT, 0.2 mg/ml BSA, 0.01% CHAPS, 50 μM Calcium, and 5 μM TPEN • Final concentrations: 5 nM hPAD4 enzyme, 250 μM BASE, and 0.5% DMSO • Total incubation time: 30 mins compound and enzyme preincubation at 37° C., 90 min enzyme/substrate reaction, 30 min reaction with phenyl glyoxal at 37° C. • Stop solution: 40 μl 5% TCA in ACN
0.13 μL of compound solution was added to 13 μL of 10 nM PAD4 in assay buffer. After 30 min 13 μl of 500 μM of BAEE was added in 25 mM hepes, pH 7.5, 5 mM NaCl, 1 mM DTT, 0.2 mg/ml BSA, 0.01% CHAPS, 50 μM Calcium, 5 μM TPEN was added and the reaction incubated for 90 min at 37° C. The enzymatic reaction was quenched by addition of 15 μl of 6.1N TCA, 100% Final Concentration is 20%, 35 μl of 8.5 mM phenyl glyoxal (final concentration 4 mM) is then added and the reaction is incubated for 30 min at 37° C.
After 30 minutes the plates are spun down to remove all precipitate. The enzyme reaction was quenched with an equal volume of methanol containing internal standard (modified citrulline). Samples were loaded onto the Rapid Fire RF300 system (Agilent) wherein they were first sipped for 1000 ms and then directly loaded to a C18 separations cartridge using a mixture of acetonitrile containing 0.01% formic acid for 3000 ms desalting. The flow rate of the mobile phase was 1.5 ml/min. Once the samples were eluted from the cartridge, a mobile phase of acetonitrile containing 0.01% formic acid was used to move the samples into the mass spectrometer for 4000 ms at a flow rate of 1.25 ml/min/Sciex API5500 triple quadrupole mass spectrometer (Applied Biosystems) equipped with ESI was used to analyze the peptidyl citrulline and internal standard ions.
MRM transition of product and internal standard were monitored at m/z 424.5 to 350.4 and m/z 293 to 247 respectively. The dwell time for each transition was set at 200 ms, and the ESI voltage was used at 5500 with a source temperature of 400° C. Extracted ion peaks for each transition were integrated using the Rapid Fire Integrator software. Peak area of analyte was normalized with internal standard.).
In the case of `COc1cc(C(=O)N2C[C@H](N)C[C@@H](F)C2)cn2nc(-c3cc4ccc(N5CCC(S(C)(=O)=O)CC5)cc4n3CC3CC3)c(C)c12`, the IC50 is reported as 20 nM.
In the case of `COc1cc(C(=O)N2CCC[C@@H](N)C2)cn2nc(-c3cc4cccc(C5CN(C(C)=O)C5)c4n3CC3CC3)c(C)c12`, the IC50 is reported as 6050 nM.
`COc1cc(C(=O)N2C[C@H](N)C[C@@H](F)C2)cn2nc(-c3cc4cccc(C5CN(C(C)=O)C5)c4n3CC3CC3)c(C)c12` was tested, and the IC50 was 15000 nM.
`Cc1c(-c2cc3ccc(-c4ccc5[nH]ccc5c4)cc3n2CC2CC2)nn2cc(C(=O)N3C[C@H](N)C[C@@H](F)C3)ccc12` was tested, and the IC50 was 2840 nM.
`Cc1c(-c2cc3ccc(-c4ccc(C(N)=O)c(Cl)c4)cc3n2CC2CC2)nn2cc(C(=O)N3CC4CCC3[C@@H]4N)ccc12` (some centres unmarked) showed an IC50 of 30 nM.
`CNC(=O)c1ccc(-c2ccc3cc(-c4nn5cc(C(=O)N6CC7CCC6[C@@H]7N)ccc5c4C)n(CC4CC4)c3c2)cn1` (some centres unmarked) gave an IC50 of 80 nM.
`Cc1c(-c2cc3ccc(-c4cn[nH]c4)cc3n2CC2CC2)nn2cc(C(=O)N3CC4CCC3[C@@H]4N)ccc12` (some centres unmarked) was tested, and the IC50 was 40 nM.
`Cc1c(-c2cc3ccc(-c4ccc5c(c4)CNC5=O)cc3n2CC2CC2)nn2cc(C(=O)N3CC4CCC3[C@@H]4N)cc(F)c12` (some centres unmarked) gave an IC50 of 80 nM.
